Experiment [1] deals with muscle-derived multipotent progenitor cells (MPC). The experiment is described as follows: MPC osteogenesis in 2D, alizarin red staining. Type of experiment: cell-based, human. The following applies: BMP+ medium, no dorsomorphin, especially at 7 weeks. Here is the method:
FIG. 10 is microtopographs showing inhibition of muscle-derived multipotent progenitor cells (MPC) osteogenesis in 2D by 2.5 nM of dorsomorphin (DM) as shown by alizarin red staining (magnification 10×). Osteogenesis was induced by addition of BMP to the medium.
Heterotopic ossification (HO), the formation of mature bone in the soft tissues, is a frequent complication following trauma. The pathogenesis of HO is not well understood, but is hypothesized to involve an inappropriate cellular response to the inflammatory environment and specific osteogenic signals therein. We have previously isolated and characterized a population of mesenchymal progenitor cells (MPCs) derived from human blast-traumatized muscle (BDM-MSC) that may represent the cellular component of the disease.
Inhibition of muscle-derived multipotent progenitor cells (MPC) osteogenesis in 2D by dorsomorphin (DM) (2.5 mM) as shown by alizarin red staining (Mag=10×) is shown in FIG. 10. MPCs from the same donor were plated and cultured in different conditions. […] Cells were assessed for osteogenesis/calcification at 1, 3, 5, and 7 weeks. Osteogenesis/deposition of calcium was assessed by alizarin red staining, a common histological staining procedure.

Experiment [2] concerns bone marrow-derived mesenchymal stem cells (BMD-MSCs). Kind of experiment: BMD-MSC osteogenesis in 2D culture, alizarin red staining. Type of experiment: cell-based. Particulars: BMP exposure alone, 21 days. Here is the method:
FIGS. 11A and 11B are microphotographs of bone marrow-derived mesenchymal stem cells (BMD-MSCs) showing inhibition of BMD-MSC osteogenesis in 2D culture by dorsomorphin (DM). Phase contrast images of alizarin red stained cultures treated with BMP, DM, and BMP+DM as compared to control and DM cultures.
Phase contrast images of alizarin red stained cultures treated with BMP (B), DM, and BMP+DM (D) as compared to control (A) and DM (C) cultures. The test was performed as the one in FIG. 10 but using bone marrow-derived MSCs and with a sole time point of 21 days.

Experiment [3] relates to BMP2-induced MPC heterotopic ossification. Kind of experiment: Heterotopic ossification in hind limbs of SCID mice injected with MPC+BMP2+/-DM, bone volume by μCT. Type of experiment: in vivo. Particulars: injection of 25 ng/ml BMP with MPC, no DM. The source says:
FIG. 12 is bone volume, determined by μCT, formed ectopically in the hind limbs of SCID mice injected with MPC+BMP2+/−dorsomorphin (DM). DM was delivered in colution (sDM) or in micro particles (mpDM). Representative μCT 3D reconstructions of heterotopic ossification (HO) inhibition of BMP2-stimulated MPC osteogenesis in vivo by dorsomorphin. […] All scans were normalized to the device hydroxyapatite standard (in vivo μCT 40; ScanCo).
Formation of ectopic bone nodules in the hind limbs of SCID mice injected with MPC+BMP2+/−DM. DM was delivered in solution or in micro particles. The DM was loaded into PLGA microparticles. Bone volume is determined by μCT.
Micro-CT 3D reconstructions HO lesions in vivo following injection of (A) MPC/BMP2+DM in microparticles (mp), (B) MPC/BMP2+ soluble (s) DM, and (C) MPC/BMP2 alone. All scans were normalized to the device hydroxy apatite standard (in vivo μCT 40; ScanCo).
Mp DM stands for microparticles containing dorsomorphin. […] A microparticles release system is then necessary for dorsomorphin to be effective. The microparticles were loaded as described in the previous protocol and are particles from the same batch from which particles were taken to perform the release profile in FIG. 4.

Experiment [4] concerns ectopic bone nodules. Kind of experiment: Ectopic bone nodules in hind limbs of SCID mice injected with MPC or HFF +/-BMP2, bone volume by μCT. It is filed as in vivo. The source says:
FIG. 9 is a graph of bone volume determined by μCT in an in vivo mouse model. Formation of ectopic bone nodules in the hind limbs of SCID mice injected with muscle-derived multipotent progenitor cells (MPC) with or without BMP2 as compared to those injected with human foreskin fibroblasts (HFF) with or without BMP2, at 1, 2, 4 and 6 weeks.
Formation of ectopic bone nodules in the hind limbs of SCID mice injected with MPC+/−BMP2 as compared to those injected with human foreskin fibroblasts (HFF)+/−BMP2 is shown in FIG. 9. Bone volume is determined by μCT. Injection of collagen served as a negative control.

We go through one molecule from patent US11318103B2, “Treating soft tissue via controlled drug release” (University of Pittsburgh—Of the Commonwealth System of …, priority 2014, dated 2022).

B1: BMP: bone morphogenetic protein, a strong inducer of osteogenesis added to medium or injected (protein, UniProt P12643 283-396, looked up)
Bone morphogenetic protein 2: QAKHKQRKRLKSSCKRHPLYVDFSDVGWNDWIVAPPGYHAFYCHGECPFPLADHLNSTNHAIVQTLVNSVNSKIPKACCVPTELSAISMLYLDENEKVVLKNYQDMVVEGCGCR
For the molecule B1, the “osteogenesis/calcification (alizarin red)” value in experiment [1] is on record as “induced a strong osteogenic/calcification phenotype”. Besides, in experiment [2], the “calcium deposition (alizarin red)” value is “induced a strong calcium deposition”. Besides, the “MPC osteogenesis within the muscle tissue” value in experiment [3] is recorded as “induces MPC osteogenesis within the muscle tissue”. The “HO lesions (bone volume by μCT)” value in experiment [4] (BMP alone, after 6 weeks, compared to samples with MPCs present) is reported as “significantly reduced”. The “osteogenesis (bone volume by μCT)” value is “levels comparable to that measured in MPC+BMP injected samples” in experiment [4] (BMP alone, week 2 and 4 after injection); “induces significantly more osteogenesis by MPCs than HFF” in experiment [4] (MPC+BMP2 compared with HFF+BMP2).
